Laboratory results published in patent US7452908B2, “Amide derivatives” (Banyu Pharmaceutical Co., Ltd., priority 1999, dated 2008).

Protein sequences, listed by entry. Tags and fused reporters are not part of them. Lines headed by an entry give the natural chain unless they say otherwise; changes in a name come on top.
UniProt P08482: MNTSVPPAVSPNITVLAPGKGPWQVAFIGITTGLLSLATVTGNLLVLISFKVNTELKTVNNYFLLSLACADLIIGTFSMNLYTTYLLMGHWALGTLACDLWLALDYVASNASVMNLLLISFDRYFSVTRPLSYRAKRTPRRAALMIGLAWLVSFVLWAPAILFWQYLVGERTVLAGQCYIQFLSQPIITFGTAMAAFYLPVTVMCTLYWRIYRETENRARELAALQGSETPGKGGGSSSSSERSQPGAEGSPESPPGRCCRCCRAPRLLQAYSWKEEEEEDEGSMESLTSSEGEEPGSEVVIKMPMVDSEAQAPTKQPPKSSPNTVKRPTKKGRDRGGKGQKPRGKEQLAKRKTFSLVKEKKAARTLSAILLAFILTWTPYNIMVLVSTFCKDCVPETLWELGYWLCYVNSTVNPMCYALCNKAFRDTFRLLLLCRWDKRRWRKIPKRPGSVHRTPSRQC
UniProt P08483, whole entry: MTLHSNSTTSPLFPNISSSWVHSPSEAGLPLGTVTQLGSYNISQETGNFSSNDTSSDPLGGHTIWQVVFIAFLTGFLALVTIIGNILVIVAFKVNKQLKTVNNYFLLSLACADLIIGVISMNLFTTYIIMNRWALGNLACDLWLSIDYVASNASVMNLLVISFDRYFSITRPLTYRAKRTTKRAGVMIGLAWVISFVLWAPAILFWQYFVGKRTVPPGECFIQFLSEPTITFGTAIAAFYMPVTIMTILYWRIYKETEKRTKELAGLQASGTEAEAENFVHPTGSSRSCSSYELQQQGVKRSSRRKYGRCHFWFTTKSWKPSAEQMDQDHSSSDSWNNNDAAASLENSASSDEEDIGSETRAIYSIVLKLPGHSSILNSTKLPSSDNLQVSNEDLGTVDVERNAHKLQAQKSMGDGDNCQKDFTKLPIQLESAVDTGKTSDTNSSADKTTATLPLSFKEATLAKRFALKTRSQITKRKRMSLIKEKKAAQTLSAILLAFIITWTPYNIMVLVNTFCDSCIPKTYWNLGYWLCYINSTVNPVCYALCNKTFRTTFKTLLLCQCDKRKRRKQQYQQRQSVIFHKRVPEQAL
UniProt P10980, whole entry: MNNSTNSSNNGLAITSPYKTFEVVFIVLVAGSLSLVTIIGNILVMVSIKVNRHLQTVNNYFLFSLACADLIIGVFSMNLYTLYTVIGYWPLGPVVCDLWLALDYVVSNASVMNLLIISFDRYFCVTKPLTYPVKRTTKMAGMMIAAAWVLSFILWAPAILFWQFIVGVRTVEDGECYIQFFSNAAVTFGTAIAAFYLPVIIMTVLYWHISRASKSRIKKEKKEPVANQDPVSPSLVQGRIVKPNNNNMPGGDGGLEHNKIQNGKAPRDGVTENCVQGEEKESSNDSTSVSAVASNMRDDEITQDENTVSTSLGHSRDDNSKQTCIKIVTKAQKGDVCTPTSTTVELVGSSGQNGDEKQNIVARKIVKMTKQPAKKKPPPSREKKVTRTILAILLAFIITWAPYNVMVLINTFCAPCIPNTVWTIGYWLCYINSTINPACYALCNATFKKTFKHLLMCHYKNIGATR

Experiments:
M1 receptor = molecular target: T1, M1 receptor (Rattus norvegicus, UniProt P08482); experiment: Antagonism to M1 receptor in vivo: McNeil-A-343-induced vasopressor reaction in cervical vertebrae-separated rats; details: i.v., McNeil-A-343 (0.3 mg/kg) 5 minutes after test compound
T1 construct: from tissue; host or cells: whole animal, male SD rats (in vivo)
Description: Male SD strain rats (weighing 300-500 g) were anesthetized with intraperitoneal administration of pentobarbital (50 mg/kg). Each rat's airway was cannulated by laryngotomy. Also by femoral incision, femoral artery and vein were isolated each and cannulated, which were used as routes for heart rate counting and chemical administration, respectively. Using a pulmotor for small animals (Type 7025, Ugo Basile Co.), artificial respiration was conducted under the conditions of ventilation rate of 6 ml/kg per breath and respiration rate of 90 breaths/min. The heart rate and blood pressure variations were measured with a heart rate counter (AT-601 G, Nippon Koden Co.) and a tonometer (AP-641G, Nippon Koden Co.), via a pressure transducer (DX-312, Nippon Koden Co.). After the blood pressure was stabilized, the cervical vertebrae was separated with an injection needle pricked from the occipital region. Afterthe average blood pressure dropped to not higher than 70 mmHg, test compound (test compound-treated group) or isotonic sodium chloride solution (control group) was intravenously administered. Five (5) minutes thereafter, McNeil-A-343 (0.3 mg/kg) was intravenously administered, and whereby induced hypertension variation was recorded. […] The inhibitory effect (inhibition ratio) of the test compound on the McNeil-A-343-induced vasopressor reaction was determined by the following equation: […]

muscarinic M3 receptor = molecular target: T2, muscarinic M3 receptor (Rattus norvegicus, UniProt P08483); experiment: Antagonism to muscarinic M3 receptor in vivo: acetylcholine-induced airway resistance-increasing reaction in rats; details: i.v., acetylcholine (50 μg/kg) 5 minutes after test compound
T2 construct: from tissue; host or cells: whole animal, male SD rats (in vivo)
Description: Male SD strain rats (weighing 300-500 g) were anesthetized with urethane (1 g/kg) and α-chloralose (50 mg/kg) administered intraperitoneally. The airway and carotid artery of each rat were isolated by laryngotomy and cannulated. The carotid artery cannula was used as the test compound administration route. After suppressing spontaneous respiration by hypodermic administration of succinylcholine (5 mg/body), the rats were transferred into Plethysmograph-box (PLYAN, Buxco) and artificially ventilated under the conditions of ventilation rate of 6 ml/kg per breath and respiration rate of 90 breaths/min., using a pulmotor for small animals (Model 681, Harvard Co.). […] After about 10 minutes' stabilization period, the change in airway resistance induced by intravenous administration of acetylcholine (50 μg/kg) was measured twice at 5 minutes' interval. The change in airway resistance induced by the second acetylcholine administration was recorded as the pre-administration of the tested rat (pre-value). […] Five (5) minutes thereafter, acetylcholine was administered and whereby induced airway resistance change was measured. […] The changes in acetylcholine-induced airway resistance-increasing reaction (% of pre-value) caused by the tested compound and isotonic sodium chloride solution were calculated by the following Equation 1: […]

M2 receptor = molecular target: T3, M2 receptor (Rattus norvegicus, UniProt P10980); experiment: Antagonism to M2 receptor in vivo: acetylcholine-induced bradycardia reaction in rats; details: i.v., acetylcholine (10 μg/kg) 5 minutes after test compound
T3 construct: from tissue; host or cells: whole animal, male SD rats (in vivo)
Description: Male SD strain rats (weighing 300-500 g) were anesthetized with urethane (1 g/kg) and α-chloralose (50 mg/kg) administered intraperitoneally. The airway, carotid artery and vein of each rat were isolated by laryngotomy and cannulated. The carotid artery and vein cannulae were made the routes for heart rate counting and drug administration. After suppressing the rats' spontaneous respiration by hypodermic administration of succinylcholine (5 mg/body), artificial ventilation was conducted under the conditions of ventilation rate of 6 ml/kg per breath and respiration rate of 90 breaths/min., using a pulmotor for small animals (Model 681, Harvard Co.). The variations in heart rate and blood pressure were measured with a heart rate counter (AP-601G, Nippon Koden Co.) and a tonometer (AP-641G, Nippon Koden Co.), via a pressure transducer (DX-312, Nippon Koden Co.). After about 10 minutes' stabilization period, heart rate change was induced by intravenous administration of acetylcholine (10 μg/kg), and the mean value of the change was recorded as the value before the drug administration (pre-value) of the body. […] Five minutes thereafter, acetylcholine was intravenously administered and whereby induced change in the heart rate was recorded. […]
Fifty (50%) inhibition dose (ED50; μg/kg) was calculated from the inhibition ratio of each dose of the tested compound. […]

SMILES: CN1[C@@H]2CC[C@H]1C[C@@H](OC(=O)C(CO)c1ccccc1)C2 (stereo partly drawn) [atoropine, reference compound]
- ED50 vasopressor M1 (M1 receptor): 19 µg/kg
- ED50 Airway constriction M3 (muscarinic M3 receptor): 4.3 µg/kg
- ED50 bradycardia M2 (M2 receptor): 5.2 µg/kg
